{"source": "published antibiotic growth screens (doi:10.1038/s41589-023-01349-8)", "note": "The other results are listed elsewhere or left out.", "data": [{"tested_on": "A. baumannii ATCC 17978", "assay": "relative growth (fraction of control); higher = less inhibition", "conditions": "50 µM", "values": [{"smiles": "O=C1[C@@H]2[C@H](O)CS[C@@H]2C(=O)N1c1ccccc1", "relative growth": 1.07}, {"smiles": "COc1ccc(C#Cc2cnc3c(c2)C(=O)N([C@@H](C)CO)C[C@@H](C)[C@H](CN(C)C(=O)CN(C)C)O3)cc1", "relative growth": 1.01}, {"smiles": "C[C@@H](O)[C@H]1C(=O)N2C(C(=O)O)=C(SC3CN[C@H](C(=O)N(C)C)C3)[C@H](C)[C@H]12", "note": "(some centres not stated)", "relative growth": 0.171}, {"smiles": "CCCCCCCCCCCCCCCCOc1nc2ccc(C)cc2c(=O)o1", "relative growth": 0.959}, {"smiles": "CCC(=O)Nc1ccc2c(c1)C(=O)N(C)C[C@@H](OC)[C@@H](C)CN(C(=O)CN1CCOCC1)[C@H](C)CO2", "relative growth": 1.02}, {"smiles": "Cc1sc(Nc2ccccc2)nc1-c1ccc(Cl)cc1", "relative growth": 1.28}, {"smiles": "CC(=O)/N=c1\\sc(S(N)(=O)=O)nn1C", "relative growth": 0.903}, {"smiles": "C/C=C1\\[C@H](O[C@@H]2O[C@H](CO)[C@@H](O)[C@H](O)[C@H]2O)OC=C(C(=O)OC)[C@H]1CC(=O)OC[C@H]1O[C@@H](OCCc2ccc(O)cc2)[C@H](O)[C@@H](O)[C@@H]1OC(=O)C[C@@H]1C(C(=O)OC)=CO[C@@H](O[C@@H]2O[C@H](CO)[C@@H](O)[C@H](O)[C@H]2O)/C1=C\\C", "relative growth": 0.992}, {"smiles": "COc1ccc([Si](C)(C)[C@H]2[C@H](CC(=O)N3Cc4ccccc4C[C@H]3CO)O[C@@]3(C(=O)N(Cc4cccc(N5C(=O)c6cccc7cccc5c67)c4)c4ccccc43)[C@@H]2C)cc1", "relative growth": 1.04}, {"smiles": "O=C(C[C@@H]1CC[C@H]2[C@@H](COC[C@@H](O)CN2S(=O)(=O)c2ccccc2F)O1)NCc1ccccc1F", "relative growth": 1.07}, {"smiles": "CC(=O)NCCc1ccc(O)c(-c2c(O)c(O)c3c(c2O)C(=O)c2c(cc(O)c(C(=O)O)c2C(=O)O)C3=O)c1", "relative growth": 1.11}, {"smiles": "Cc1noc(C)c1NC(=O)N[C@H]1C=C[C@@H](CC(=O)N2CCN(C)CC2)O[C@@H]1CO", "relative growth": 0.956}, {"smiles": "COCC#Cc1ccc2c(c1)O[C@@H](CN(C)C(=O)COC)[C@@H](C)CN([C@H](C)CO)S2(=O)=O", "relative growth": 0.837}, {"smiles": "O=C(C[C@@H]1CC[C@@H]2[C@H](COC[C@H](O)CN2C(=O)c2ccncc2)O1)NC1CCC1", "relative growth": 1.06}, {"smiles": "C[C@]12C=CC(=O)C=C1CCC1C3C[C@@H](O)[C@](O)(C(=O)CO)[C@@]3(C)C[C@H](O)[C@@]12F", "note": "(some centres not stated)", "relative growth": 0.975}, {"smiles": "COc1ccc(S(=O)(=O)N2C[C@@H](O)COC[C@H]3O[C@@H](CC(=O)NCCN4CCCCC4)CC[C@@H]32)cc1", "relative growth": 1.04}, {"smiles": "O=C(C[C@@H]1CC[C@H](NC(=O)c2ccc(F)cc2)[C@H](CO)O1)NCc1ccncn1", "relative growth": 0.958}, {"smiles": "CC(Oc1c(Cl)cccc1Cl)C1=NCCN1.Cl", "note": "(configuration not stated)", "relative growth": 0.871}, {"smiles": "CC[C@@H]1C(=O)OC[C@@H]1Cc1cncn1C.O=[N+]([O-])O", "relative growth": 0.983}, {"smiles": "C[C@@H](O)[C@H]1C(=O)N2C(C(=O)[O-])=C(SC3Cn4cnc[n+]4C3)[C@H](C)[C@H]12", "note": "(some centres not stated)", "relative growth": 0.561}, {"smiles": "CC(C)CC#Cc1ccc2c(c1)O[C@@H](CN(C)S(=O)(=O)c1cccc(F)c1)[C@H](C)CN([C@@H](C)CO)S2(=O)=O", "relative growth": 1.31}, {"smiles": "O=C(NC[C@@H](O)CO)[C@]1(CCS(=O)(=O)c2ccccc2)N=C(c2ccc(OCCCO)cc2)O[C@@H]1c1ccccc1", "relative growth": 0.988}, {"smiles": "Cc1nc(-c2ccc(OCC(C)C)c(C#N)c2)sc1C(=O)O", "relative growth": 1.2}, {"smiles": "CC(C(=O)O)c1ccc2c(c1)CC(=O)c1ccccc1S2", "note": "(configuration not stated)", "relative growth": 1.05}, {"smiles": "COCC#Cc1cnc2c(c1)C(=O)N([C@H](C)CO)C[C@H](C)[C@H](CN(C)S(=O)(=O)c1ccccc1)O2", "relative growth": 1.07}, {"smiles": "COc1ccc(S(=O)(=O)N[C@@H]2CC[C@H](CC(=O)N3CCN(c4ccccc4)CC3)O[C@@H]2CO)cc1", "relative growth": 0.97}, {"smiles": "CN1CCN(C(=O)C[C@@H]2C=C[C@H](NS(=O)(=O)c3cccc(F)c3)[C@H](CO)O2)CC1", "relative growth": 0.966}, {"smiles": "COc1ccc(-n2c(C)cc(CN)c2C)cc1", "relative growth": 0.878}, {"smiles": "CC1(C)S[C@@H]2C(N3C(=O)[C@@H](c4ccccc4)NC3(C)C)C(=O)N2[C@H]1C(=O)[O-].[K+]", "note": "(some centres not stated)", "relative growth": 0.153}, {"smiles": "CCNc1cc(=N)n(CC)c2n[nH]c(N)c12", "relative growth": 1.05}, {"smiles": "C[C@@H]1CN([C@@H](C)CO)C(=O)c2ccccc2-c2ccccc2CO[C@@H]1CN(C)C(=O)Nc1ccccc1C(F)(F)F", "relative growth": 1.03}, {"smiles": "CC(=O)NCCCC[C@@H]1NC(=O)[C@@H]2C[C@H](C(=O)NCc3ccc(F)cc3)[C@H](c3ccc(O)cc3)N2C1=O", "relative growth": 1.01}, {"smiles": "C=C(C)C1CC=C(CO)CC1", "note": "(configuration not stated)", "relative growth": 1.08}, {"smiles": "Cc1n[nH]c(NCc2ccco2)nc1=O", "relative growth": 1}, {"smiles": "O=C(Cc1ccncc1)NCC[C@H]1CC[C@H](NC(=O)C2CCOCC2)[C@H](CO)O1", "relative growth": 0.931}, {"smiles": "COC(=O)c1cnn2c(=O)cc(C)[nH]c12", "relative growth": 1.06}, {"smiles": "CC(=O)N[C@@H]1[C@@H](OCCOc2ccc(Cl)cc2C)O[C@H](CO)[C@H](O)[C@@H]1O", "relative growth": 1.2}, {"smiles": "NC(=O)[C@@]1(CCS(=O)(=O)c2ccccc2)N=C(c2ccc(OCCCO)cc2)O[C@H]1c1ccccc1", "relative growth": 0.941}, {"smiles": "N#C/C(=N\\O)C(=O)c1ccco1", "relative growth": 0.966}, {"smiles": "N#C[C@H](c1ccccn1)N1CCOCC1", "relative growth": 0.808}, {"smiles": "CO/N=C1\\C[C@]2(C[C@@H]3C[C@@H](C/C=C(\\C)C[C@@H](C)/C=C/C=C4\\CO[C@@H]5[C@H](O)C(C)=C[C@@H](C(=O)O3)[C@]45O)O2)O[C@H](/C(C)=C/C(C)C)[C@H]1C", "relative growth": 1.01}, {"smiles": "O=C(C[C@@H]1C=C[C@H](NC(=O)CN2CCOCC2)[C@@H](CO)O1)NCc1cccc(F)c1", "relative growth": 0.989}, {"smiles": "C[C@@H]1CN([C@H](C)CO)S(=O)(=O)c2ccc(C#C[C@@H](C)O)cc2O[C@@H]1CN(C)C", "relative growth": 1.05}, {"smiles": "OCC1c2ccccc2-c2ccccc21", "relative growth": 1.04}, {"smiles": "Cn1c(=O)c2c(ncn2C[C@@H](O)CO)n(C)c1=O", "relative growth": 1.03}, {"smiles": "CN(C)C(=O)CSc1nnc(N)s1", "relative growth": 1.02}, {"smiles": "C=CCN(C#N)c1nc(N(C)C)nc(N(C)C)n1", "relative growth": 0.847}, {"smiles": "CC(=O)c1c(O)cc(O)cc1O", "relative growth": 0.918}, {"smiles": "O=S(=O)(NCCCCN(C/C=C/c1ccccc1)C/C=C/c1ccccc1)c1cccc2cnccc12", "relative growth": 0.861}, {"smiles": "CC(=O)O[C@@H]1CC2C(C)(CC[C@H](O)C2(C)C)C2CC[C@]3(C)C(=CC(=O)O[C@H]3c3ccoc3)C21C", "note": "(stereo partly drawn) [3beta-HYDROXYDEOXODIHYDRODEOXYGEDUNIN]", "relative growth": 0.945}, {"smiles": "NC1CCN(C(=O)c2cc3ccccc3[nH]2)CC1", "relative growth": 0.995}, {"smiles": "O=C(C[C@@H]1CC=CC[C@H](NC(=O)OCC2c3ccccc3-c3ccccc32)C(=O)O[C@H](c2ccccc2)CNC1=O)N[C@@H](CO)Cc1ccccc1", "relative growth": 1.04}, {"smiles": "[N-]=[N+]=Nc1ccccc1[C@@H]1OC(c2ccc(OCCCO)cc2)=N[C@]1(Cc1ccccc1)C(=O)N1CCCCC1", "relative growth": 1.05}, {"smiles": "CC1(C)CCC2=C(O1)C(=O)c1ccccc1C2=O", "note": "[alpha-LAPACHONE]", "relative growth": 0.948}, {"smiles": "CC(C)(C)OC(=O)C[C@@H]1CC=CC[C@@H](CC(=O)N[C@H](CO)Cc2ccccc2)C(=O)N[C@@H](C(C)(C)C)COC1=O", "relative growth": 0.872}, {"smiles": "Cc1ccc(S(=O)(=O)N[C@H]2CC[C@@H](CC(=O)N3CCC(Cc4ccccc4)CC3)O[C@@H]2CO)cc1", "relative growth": 0.883}, {"smiles": "O=C(C[C@H]1CC[C@H]2[C@@H](COC[C@@H](O)CN2C(=O)c2ccc3c(c2)OCO3)O1)NCCN1CCCC1", "relative growth": 1.07}, {"smiles": "COc1ccccc1S(=O)(=O)N[C@H]1C=C[C@@H](CC(=O)N2CCOCC2)O[C@@H]1CO", "relative growth": 0.924}, {"smiles": "C=CCC[C@H](Cc1ccc(F)cc1)C(=O)O[C@@H](CNC(=O)[C@@H](CC=C)CC(=O)N(CCO)Cc1ccccc1)c1ccccc1", "relative growth": 1.46}, {"smiles": "C[C@@H]1COCCN1", "relative growth": 0.939}, {"smiles": "COCCOC(=O)N1C(=O)[C@@]2(c3cc(C#CCNC(N)=O)ccc31)[C@H](c1ccccc1OCCO)N1[C@H](c3ccccc3)[C@H](c3ccccc3)OC(=O)[C@H]1[C@@H]2C(N)=O", "relative growth": 1.05}, {"smiles": "COc1ccccc1-c1ccc2c(c1)O[C@@H](CN(C)CC1CCOCC1)[C@H](C)CN([C@@H](C)CO)S2(=O)=O", "relative growth": 0.665}, {"smiles": "CC(C)(C)c1ccc(C(O)CCCN2CCC(C(O)(c3ccccc3)c3ccccc3)CC2)cc1", "note": "(configuration not stated)", "relative growth": 0.77}, {"smiles": "Cc1cc(=O)oc2c(O)c(O)ccc12", "relative growth": 0.924}, {"smiles": "CSc1c(-c2ccc(Cl)cc2)[nH]c2ccccc12", "relative growth": 0.919}, {"smiles": "CC12CCCC(O)(C1)C1CC(C)(C)C1CC2", "note": "(stereo not drawn) [beta-CARYOPHYLLENE ALCOHOL]", "relative growth": 0.958}, {"smiles": "CN(C)CCN(Cc1cccs1)c1ccccn1.Cl", "relative growth": 1.04}, {"smiles": "C[C@@H]1CN([C@@H](C)CO)S(=O)(=O)c2ccc(-c3cncnc3)cc2O[C@H]1CN(C)C(=O)C1CCCCC1", "relative growth": 1.01}, {"smiles": "Brc1ccc(-c2ccc(Br)s2)s1", "relative growth": 0.924}, {"smiles": "O=C(O)[C@H]1O[C@@H](Oc2cc3oc(-c4ccccc4)cc(=O)c3c(O)c2O)[C@H](O)[C@@H](O)[C@@H]1O", "relative growth": 1.06}, {"smiles": "O=C(O)CCNC(=O)c1cccc([N+](=O)[O-])c1", "relative growth": 1.16}, {"smiles": "Nc1ccc(S(=O)(=O)Nc2ccccn2)cc1", "relative growth": 0.925}, {"smiles": "O=C(O)[C@@H]1C[C@H](C(F)(F)F)CN1", "relative growth": 0.956}, {"smiles": "O=C(CCCCC(=O)N/N=C/[C@H](O)[C@@H](O)[C@H](O)CO)NO", "relative growth": 0.999}, {"smiles": "CC#C[C@]1(O)CCC2C3CCC4=CC(=O)CCC4=C3[C@@H](c3ccc(N(C)C)cc3)C[C@@]21C", "note": "(some centres not stated)", "relative growth": 0.925}, {"smiles": "O=C(O)[C@H](O)[C@@](O)(Cc1ccc(O)cc1)C(=O)O", "relative growth": 0.988}, {"smiles": "CCCCOC(=O)CCCCCCC(=O)OCCCC", "relative growth": 1.01}, {"smiles": "Cn1c2c(c(=O)n(C)c1=O)CN(CC1CC1)CN2", "relative growth": 0.969}, {"smiles": "COCC#Cc1ccc2c(c1)O[C@H](CN(C)S(=O)(=O)c1ccc(OC)cc1)[C@H](C)CN([C@H](C)CO)S2(=O)=O", "relative growth": 1.05}, {"smiles": "O=c1[nH]c(=O)c2ccccc2o1", "relative growth": 0.835}, {"smiles": "NC(=O)c1ccc[n+](CC(=O)c2ccccc2)c1", "relative growth": 0.902}, {"smiles": "CC(C)(C)OC(=O)C[C@H]1CC=CC[C@@H](CC(=O)N[C@H](CO)Cc2ccccc2)C(=O)N2CCC[C@@H]2COC1=O", "relative growth": 0.856}]}]}
